Measurements: patent US11819556B2, “Stabilized compositions of radionuclides and uses thereof” (RayzeBio, Inc., priority 2021, dated 2023)
Like-named read-outs stand apart in the source and are kept apart here.

Conditions: 0.03 mCi/ml, excipient 1 mg/ml in sodium acetate-acetic acid buffer pH 5.80, 25° C.

Compound	Percentage of ^225Ac present in [^225Ac]Ac-DOTA-TATE (0 hour after mixing)	Percentage of ^225Ac present in [^225Ac]Ac-DOTA-TATE (24 hours after mixing)	Percentage of ^225Ac present in [^225Ac]Ac-DOTA-TATE (48 hours after mixing)
O=C1O[C@H]([C@@H](O)CO)C([O-])=C1O.[Na+] [Sodium Ascorbate, pH 5.8, Sodium Ascorbate]	99.42%	95.42%	–
Catechin hydrate	99.42%	95.41%	95.64%
Dextran (60-90) [Dextran (60-90), Clinical grade]	99.42%	94.91%	86.80%
